The values below are quoted from earlier work in article PMC7442691 (Nature chemical biology, 2020).

The chains behind the UniProt entries cited, without tags or fusion partners.
UniProt Q13526, whole entry: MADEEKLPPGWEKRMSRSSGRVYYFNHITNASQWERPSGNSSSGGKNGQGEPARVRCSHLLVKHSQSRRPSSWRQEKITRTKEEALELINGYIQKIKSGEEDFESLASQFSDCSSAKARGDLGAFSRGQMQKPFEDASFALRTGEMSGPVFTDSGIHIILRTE

As a reminder, the Ki is the dissociation constant of the complex between target and ligand, obtained from inhibition or displacement.

This data set has as its target Pin1 (Homo sapiens, UniProt Q13526). Particulars: cited from earlier work.

Take “Ac-Phe-D-pThr-Pip-Nal-Gln-NH2 [D-PEPTIDE]”: the Ki was 20 nM.
